# In patent US9216988B2, “Benzyl sulfonamide derivatives as RORc modulators” (Genentech, Inc., priority 2011, dated 2015):
# Protein sequences, listed by entry. Tags and fused reporters are not part of them. Residues count along the entry.
# UniProt P51449, 269-508: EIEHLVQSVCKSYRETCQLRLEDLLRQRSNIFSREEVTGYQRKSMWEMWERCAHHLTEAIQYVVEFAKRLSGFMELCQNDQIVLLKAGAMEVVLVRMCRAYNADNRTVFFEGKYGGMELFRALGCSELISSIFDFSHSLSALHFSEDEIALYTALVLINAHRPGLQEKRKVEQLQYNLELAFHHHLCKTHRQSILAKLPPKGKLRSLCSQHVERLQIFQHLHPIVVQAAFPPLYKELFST
# Target: RORc ligand binding domain (Homo sapiens (Human), UniProt P51449)
# Details: read-out: RORc IC50; two values in a cell = separated enantiomers, stereochemical identity not determined
row,Structure (SMILES),IC50 [nM]
1,"CC(=O)N1CCN(c2ccc(CN(CC(F)(F)F)S(=O)(=O)C(C)(C)c3ccccc3)c(F)c2)CC1 [Compound 106, 2-Phenyl-propane-2-sulfonic acid [4-(4-acetyl-piperazin-1-yl)-2-fluoro-benzyl]-(2,2,2-trifluoro-ethyl)-amide]",26
2,"CC(=O)N1CCN(c2ccc(CN(C3CCC3)S(=O)(=O)Cc3ccccc3Cl)c(F)c2)CC1 [Compound 85, N-[4-(4-Acetyl-piperazin-1-yl)-2-fluoro-benzyl]-C-(2-chloro-phenyl)-N-cyclobutyl-methanesulfonamide]",9
3,"CC(C)CN(C(C)c1ccc(N2CCN(S(=O)(=O)N(C)C)CC2)cc1)S(=O)(=O)Cc1ccccc1 (stereo in doubt) [Compound 129, 4-{4-[(S)-1-(Isobutyl-phenylmethanesulfonyl-amino)-ethyl]-phenyl}-piperazine-1-sulfonic acid dimethylamide]",127
4,"CC(C)CN(Cc1ccc(N2CC(C(=O)N(C)C)C2)cc1)S(=O)(=O)Cc1ccccc1 [Compound 111, 1-{4-[(Isobutyl-phenylmethanesulfonyl-amino)-methyl]-phenyl}-azetidine-3-carboxylic acid dimethylamide]",162
5,"CCN1CC[C@@H](Nc2ccc(CN(CC(C)C)S(=O)(=O)Cc3ccccc3)cc2)[C@@H](F)C1 [Compound 207, N-(4-(((3S,4R)-1-ethyl-3-fluoropiperidin-4-yl)amino)benzyl)-N-isobutyl-1-phenylmethanesulfonamide]",2200
6,"CC(C)CN(Cc1ccc(N[C@@H]2CCN(S(C)(=O)=O)C[C@H]2F)cc1)S(=O)(=O)Cc1ccccc1 [Compound 200, N-(4-(((3R,4R)-3-fluoro-1-(methylsulfonyl)piperidin-4-yl)amino)benzyl)-N-isobutyl-1-phenylmethanesulfonamide]",10
7,"CS(=O)(=O)N1CCN(c2ccc(CN(CC(F)(F)F)S(=O)(=O)Cc3ccccc3)c(F)c2)CC1 [Compound 75, N-[2-Fluoro-4-(4-methanesulfonyl-piperazin-1-yl)-benzyl]-C-phenyl-N-(2,2,2-trifluoro-ethyl)-methanesulfonamide]",56
8,"CC(=O)N1CCN(c2ccc(CN(C3CCC3)S(=O)(=O)c3cccc(C(F)(F)F)c3)c(F)c2)CC1 [Compound 125, N-[4-(4-Acetyl-piperazin-1-yl)-2-fluoro-benzyl]-N-cyclobutyl-3-trifluoromethyl-benzenesulfonamide]",99
9,"CC(=O)N1CCC(c2ccc(CN(CC(F)(F)F)S(=O)(=O)Cc3ccccc3)c(F)c2)CC1 [Compound 62, N-[4-(1-Acetyl-piperidin-4-yl)-2-fluoro-benzyl]-C-phenyl-N-(2,2,2-trifluoro-ethyl)-methanesulfonamide]",44
10,"CC(=O)N1CCN(c2ccc(CN(C3CCC3)S(=O)(=O)Cc3ccc(F)cc3)c(F)c2)CC1 [Compound 91, N-[4-(4-Acetyl-piperazin-1-yl)-2-fluoro-benzyl]-N-cyclobutyl-C-(4-fluoro-phenyl)-methanesulfonamide]",17
11,"CC(=O)N1CCN(c2ccc(CN(C3(C)CC3)S(=O)(=O)Cc3ccccc3)cc2)CC1 [Compound 147, N-(4-(4-acetylpiperazin-1-yl)benzyl)-N-(1-methylcyclopropyl)-1-phenylmethanesulfonamide]",57
12,"CN(C)S(=O)(=O)N1CCN(c2ccc(CN(CC(F)(F)F)S(=O)(=O)Cc3ccccc3)c(F)c2)CC1 [Compound 76, 4-(3-Fluoro-4-{[phenylmethanesulfonyl-(2,2,2-trifluoro-ethyl)-amino]-methyl}-phenyl)-piperazine-1-sulfonic acid dimethylamide]",32
13,"CC(C)CN(Cc1ccc(N2CCC(N3CCS(=O)(=O)CC3)CC2)cc1)S(=O)(=O)Cc1ccccc1 [Compound 191, N-(4-(4-(1,1-dioxidothiomorpholino)piperidin-1-yl)benzyl)-N-isobutyl-1-phenylmethanesulfonamide]",3200
14,"CC(=O)N1CCN(c2ccc(CN(C3CCC3)S(=O)(=O)c3cc(Cl)cc(Cl)c3)c(F)c2)CC1 [Compound 97, N-[4-(4-Acetyl-piperazin-1-yl)-2-fluoro-benzyl]-3,5-dichloro-N-cyclobutyl-benzenesulfonamide]",6
15,"CC(=O)N1CCN(c2ccc(CN(C3CCC3)S(=O)(=O)Cc3ccccc3)c(F)c2)CC1 [Compound 96, N-[4-(4-Acetyl-piperazin-1-yl)-2-fluoro-benzyl]-N-cyclobutyl-C-phenyl-methanesulfonamide]",15
16,"CC(=O)N1CCN(c2ccc(CN(C3CCC3)S(=O)(=O)c3ccc(OC(F)(F)F)cc3)c(F)c2)CC1 [Compound 67, N-[4-(4-Acetyl-piperazin-1-yl)-2-fluoro-benzyl]-N-cyclobutyl-4-trifluoromethoxy-benzenesulfonamide]",290
17,"CC(C)CN(Cc1ccc(N2CCC3(CCCO3)C2)cc1)S(=O)(=O)Cc1ccccc1 (centres unmarked) [Compound 185, N-(4-(1-oxa-7-azaspiro[4.4]nonan-7-yl)benzyl)-N-isobutyl-1-phenylmethanesulfonamide]",80
18,"CN(C)S(=O)(=O)N1CCC(c2ccc(CN(CC(F)(F)F)S(=O)(=O)Cc3ccccc3)c(F)c2)CC1 [Compound 60, 4-(3-Fluoro-4-{[phenylmethanesulfonyl-(2,2,2-trifluoro-ethyl)-amino]-methyl}-phenyl)-piperidine-1-sulfonic acid dimethylamide]",100

row,Structure (SMILES),IC50 [nM]
1,"CC(=O)N1CCN(c2ccc(CN(C3CCC3)S(=O)(=O)c3cc(F)cc(F)c3)c(F)c2)CC1 [Compound 116, N-[4-(4-Acetyl-piperazin-1-yl)-2-fluoro-benzyl]-N-cyclobutyl-3,5-difluoro-benzenesulfonamide]",49
2,"CC(C)CN(Cc1ccc(N2C[C@H]3COC[C@H]3C2)cc1)S(=O)(=O)Cc1ccccc1 [Compound 187, N-isobutyl-1-phenyl-N-(4-((3aR,6aS)-tetrahydro-1H-furo[3,4-c]pyrrol-5(3H)-yl)benzyl)methanesulfonamide]",130
3,"CC(=O)N1CCN(c2ccc(CN(C3CCC3)S(=O)(=O)CCc3ccc(F)cc3)c(F)c2)CC1 [Compound 131, 2-(4-Fluoro-phenyl)-ethanesulfonic acid [4-(4-acetyl-piperazin-1-yl)-2-fluoro-benzyl]-cyclobutyl-amide]",175
4,"CC(C)CN(Cc1ccc(N2CCN(S(=O)(=O)N(C)C)CC2)cc1)S(=O)(=O)Cc1ccccc1 [Compound 40, 4-{4-[(Isobutyl-phenylmethanesulfonyl-amino)-methyl]-phenyl}-piperazine-1-sulfonic acid dimethylamide]",120
5,"CC(C)CN(Cc1ccc(N2CC3(CCOC3)C2)cc1)S(=O)(=O)Cc1ccccc1 [Compound 186, N-(4-(6-oxa-2-azaspiro[3.4]octan-2-yl)benzyl)-N-isobutyl-1-phenylmethanesulfonamide]",59
6,"CC(=O)N1CCN(c2ccc3c(c2)OCCN(S(=O)(=O)Cc2ccccc2)C3)CC1 [Compound 58, 1-[4-(4-Phenylmethanesulfonyl-2,3,4,5-tetrahydro-benzo[f][1,4]oxazepin-8-yl)-piperazin-1-yl]-ethanone]",3500
7,"CC(=O)N1CCN(c2ccc(CN(C3CCC3)S(=O)(=O)Cc3cc(Cl)cc(Cl)c3)c(F)c2)CC1 [Compound 80, N-[4-(4-Acetyl-piperazin-1-yl)-2-fluoro-benzyl]-N-cyclobutyl-C-(3,5-dichloro-phenyl)-methanesulfonamide]",29
8,"CC(=O)N1CCN(c2ccc(CN(C3CCC3)S(=O)(=O)c3ccccc3F)c(F)c2)CC1 [Compound 37, N-[4-(4-Acetyl-piperazin-1-yl)-2-fluoro-benzyl]-N-cyclobutyl-2-fluoro-benzenesulfonamide]",76
9,"CC(=O)N1CCN(c2ccc(CN(C3CCC3)S(=O)(=O)c3ccccc3C)c(F)c2)CC1 [Compound 36, N-[4-(4-Acetyl-piperazin-1-yl)-2-fluoro-benzyl]-N-cyclobutyl-2-methyl-benzenesulfonamide]",70
10,"CC(=O)N1CCN(c2ccc(CN(C3CCC3)S(=O)(=O)Cc3ccc(Cl)cc3)c(F)c2)CC1 [Compound 86, N-[4-(4-Acetyl-piperazin-1-yl)-2-fluoro-benzyl]-C-(4-chloro-phenyl)-N-cyclobutyl-methanesulfonamide]",36
11,"CCN1CC[C@H](Nc2ccc(CN(CC(C)C)S(=O)(=O)Cc3ccccc3)cc2)[C@H](F)C1 [Compound 208, N-(4-(((3R,4S)-1-ethyl-3-fluoropiperidin-4-yl)amino)benzyl)-N-isobutyl-1-phenylmethanesulfonamide]",1600
12,"CC(=O)N1CCN(c2ccc(CN(C3CCC3)S(=O)(=O)c3ccccc3)c(F)c2)CC1 [Compound 135, N-[4-(4-Acetyl-piperazin-1-yl)-2-fluoro-benzyl]-N-cyclobutyl-benzenesulfonamide]",249
13,"CC(=O)N1CCN(c2ccc(CN(C3CCC3)S(=O)(=O)c3ccccc3Cl)c(F)c2)CC1 [Compound 34, N-[4-(4-Acetyl-piperazin-1-yl)-2-fluoro-benzyl]-2-chloro-N-cyclobutyl-benzenesulfonamide]",55
14,"CC(=O)N1CCN(c2ccc(CN(C3CCC3)S(=O)(=O)CCc3cccc(F)c3)c(F)c2)CC1 [Compound 132, 2-(3-Fluoro-phenyl)-ethanesulfonic acid [4-(4-acetyl-piperazin-1-yl)-2-fluoro-benzyl]-cyclobutyl-amide]",178
15,"CC(C)CN(Cc1ccc(N2CCC3(COC3)C2)cc1)S(=O)(=O)Cc1ccccc1 [Compound 182, N-(4-(2-oxa-6-azaspiro[3.4]octan-6-yl)benzyl)-N-isobutyl-1-phenylmethanesulfonamide]",53
16,"CC(=O)N1CCC(Oc2ccc(CN(CC(C)C)S(=O)(=O)Cc3ccccc3)cc2)CC1 [Compound 150, N-(4-((1-acetylpiperidin-4-yl)oxy)benzyl)-N-isobutyl-1-phenylmethanesulfonamide]",120
17,"CC(=O)N1CCN(c2ccc(CN(C3CCC3)S(=O)(=O)c3ccc(F)cc3)c(F)c2)CC1 [Compound 134, N-[4-(4-Acetyl-piperazin-1-yl)-2-fluoro-benzyl]-N-cyclobutyl-4-fluoro-benzenesulfonamide]",218
